These results are taken from ChEMBL document CHEMBL1149096 (J Med Chem, 2004).

The chains behind the UniProt entries cited, without tags or fusion partners.
UniProt P33533, whole entry, looked up: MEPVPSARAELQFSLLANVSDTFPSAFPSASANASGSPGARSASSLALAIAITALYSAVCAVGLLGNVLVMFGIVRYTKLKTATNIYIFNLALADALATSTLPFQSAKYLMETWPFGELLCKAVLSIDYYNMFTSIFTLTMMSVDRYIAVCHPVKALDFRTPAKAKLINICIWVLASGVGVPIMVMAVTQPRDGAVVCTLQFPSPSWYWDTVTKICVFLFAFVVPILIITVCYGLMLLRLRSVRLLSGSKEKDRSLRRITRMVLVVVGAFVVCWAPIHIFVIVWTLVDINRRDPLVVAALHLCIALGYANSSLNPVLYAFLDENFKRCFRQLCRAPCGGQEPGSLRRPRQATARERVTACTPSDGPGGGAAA
UniProt P33535, whole entry, looked up: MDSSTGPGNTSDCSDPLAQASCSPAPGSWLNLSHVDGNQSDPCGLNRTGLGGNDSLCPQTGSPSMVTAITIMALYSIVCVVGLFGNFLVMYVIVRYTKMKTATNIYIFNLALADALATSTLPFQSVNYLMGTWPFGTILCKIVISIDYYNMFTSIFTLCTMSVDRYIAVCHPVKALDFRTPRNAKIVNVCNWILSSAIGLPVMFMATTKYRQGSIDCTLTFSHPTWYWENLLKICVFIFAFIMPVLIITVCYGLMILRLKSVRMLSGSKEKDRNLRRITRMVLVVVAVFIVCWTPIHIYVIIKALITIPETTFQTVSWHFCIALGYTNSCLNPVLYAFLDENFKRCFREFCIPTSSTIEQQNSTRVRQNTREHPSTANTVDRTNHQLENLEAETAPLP

The species named for test [1] is Cavia porcellus. The test is described as follows: Selectivity given as ratio of kappa receptor to delta receptor.
The target of test [2] is Opioid receptors; mu & delta (Rattus norvegicus) (UniProt P33533+P33535). Description: Selectivity given as ratio of mu receptor to delta receptor. The format is protein assay.

`CN(C(=O)Cc1ccccc1)[C@H]1CC[C@@]2(CCCO2)C[C@@H]1N1CCCC1`: the Ratio was below 0.01 in test [1] and below 1.5 in test [2].
